Apparent affinities of Ab-14 variants for a coronavirus HR2 peptide

The measurements come from Li et al. 2023 (doi:10.1038/s41467-023-39022-2) through the FLAb antibody collection.

Binding partner: SARS-CoV-2 spike HR2 peptide, sequence PDVDLGDISGINAS.

The variants keep the heavy chain, the linker and the frameworks of Ab-14 (scFv order VH, a (GGGGS)3 linker, VL).
VH: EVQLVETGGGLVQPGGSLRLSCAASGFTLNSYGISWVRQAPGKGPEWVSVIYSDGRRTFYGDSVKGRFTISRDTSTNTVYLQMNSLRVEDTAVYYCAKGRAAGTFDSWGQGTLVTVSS
VL: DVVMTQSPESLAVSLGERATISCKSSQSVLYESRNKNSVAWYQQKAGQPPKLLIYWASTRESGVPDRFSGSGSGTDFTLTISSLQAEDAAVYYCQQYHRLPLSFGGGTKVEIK

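Phage display of a naive human antibody library on the peptide gave the parent. The variants were designed computationally from a first round of random CDR variants and then made and measured. Group labels follow the data file (Ctrl: baseline library sampled from a position-specific scoring matrix, with some repeated check sequences; GP: Gaussian process model; HC: hill climbing; Gen: genetic algorithm; Gibbs: Gibbs sampling; a sequence that several methods proposed may carry one label only). In AlphaSeq, yeast of one mating type display the scFv and yeast of the other type display the target. Pairs that bind mate more often; barcode pairs of the diploids are counted by sequencing. A regression on co-assayed BCL2-family reference pairs converts the normalised counts of each replicate to an apparent Kd. Mating was done six times.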

Substitutions are numbered in sequence along the VL above, starting at 1 (not Kabat).
Variants here have at most six changes.
Scale: log10 of Kd in nM, estimated from mating counts; low values are strong binders.
The mean shown is taken over the replicates in which the pair was detected.
A pair that was not seen in that replicate is written "nd"; this usually means weak binding, but a binder can also be missed.

* S25Y Y31D [Ctrl] = 1.12, 0.76, 0.48, 0.53, 0.82, 0.85 (mean 0.76)
* Y31M R34S R99H S103E [Ctrl] = nd, nd, nd, 2.05, 2.63, 1.83 (mean 2.17)
* R34A N35P W56A T59H [Ctrl] = nd, nd, nd, nd, nd, nd
* S25L S26E V29R L30D W56N [GP_HC] = 0.13, 0.22, 0.35, 0.16, 0.03, 0.11 (mean 0.17)
* S26E Y31N Q95E [Ctrl] = nd, 3.21, 1.80, 1.69, 2.00, 2.00 (mean 2.14)
* S25L S26Q V29W W56H [GP_Gen] = 0.20, 0.04, -0.10, -0.10, 0.08, 0.31 (mean 0.07)
* S25L S26P L30G W56D [GP_Gen] = 0.10, -0.05, -0.23, -0.06, -0.17, 0.04 (mean -0.06)
* Q27E S28C V29D W56G P101T [GP_HC] = 1.88, 0.96, 1.33, 0.74, 3.07, 1.61 (mean 1.60)
* Q27F S103F [Ctrl] = nd, 2.76, nd, 1.93, nd, nd (mean 2.35)
* S25L S26Q W56Q E61C [GP_Gen] = -0.01, 0.05, -0.20, -0.28, -0.11, 0.03 (mean -0.09)
* S25V S26Q W56H S62D [GP_HC] = -0.07, -0.07, 0.22, -0.14, -0.30, 0.12 (mean -0.04)
* S33G K36S W56D E61W [Ctrl] = 0.37, 0.30, 0.16, -0.09, 0.25, 0.49 (mean 0.25)
* R34N N37Q T59Q E61V Y97V [Ctrl] = nd, nd, nd, nd, nd, nd
* S25L S26Q W56G Q96A [GP_Gen] = 0.09, -0.13, -0.05, 0.38, -0.04, -0.01 (mean 0.04)
* S25F V29Q L30G W56N T59Q [GP_Gen] = 0.31, 0.10, 0.13, -0.04, 0.05, 0.27 (mean 0.13)
* V29D Q95F [Ctrl] = 2.23, 0.38, 0.41, 1.09, 0.63, 1.01 (mean 0.96)
* S25L L30P W56N T59Q [GP_Gen] = nd, 3.25, nd, nd, nd, 3.07 (mean 3.16)
* S25L S26P W56D T59Q [GP_Gen] = -0.38, -0.56, -0.52, -0.59, -0.54, -0.50 (mean -0.52)
* S25L S26R V29T S38E W56S [GP_HC] = 0.94, 1.36, 3.02, 1.08, 1.77, 1.75 (mean 1.65)
* L30Y E32P K36R S38D Q96N [Ctrl] = nd, nd, nd, nd, nd, nd
* S25L S26Q L30P W56N S62Q [GP_Gen] = 0.48, 0.59, 0.48, 0.14, 0.27, 0.74 (mean 0.45)
* S25L S33E N35Q W56N [GP_Gen] = 0.46, 0.45, 0.08, 0.25, 0.12, 0.46 (mean 0.30)
* S25L N35W W56N [GP_Gen] = 0.64, 0.76, 0.73, 0.35, 0.60, 0.71 (mean 0.63)
* S28E R34A T59R [Ctrl] = 1.97, 2.15, 1.40, 1.25, 1.36, 1.53 (mean 1.61)
* S25M S26E S28G W56G T59L [GP_HC] = -0.04, 0.18, -0.08, -0.23, 0.06, 0.33 (mean 0.04)
* S25L S26E V29E W56N T59Q E61L [GP_Gen] = 0.01, -0.27, -0.23, -0.33, -0.26, -0.05 (mean -0.19)
* S26L V29W W56H S62D [GP_HC] = 1.61, 1.32, 0.94, 0.97, 1.49, 1.20 (mean 1.25)
* S25V V29Y Y31G K36M W56N S62D [GP_Gibbs] = 0.20, 0.46, 0.27, 0.24, 0.29, 0.37 (mean 0.31)
* S25L L30D N35Q W56N S58Q E61M [GP_Gibbs] = -0.15, -0.27, -0.34, -0.32, -0.38, -0.15 (mean -0.27)
* S25L S26Q V29E W56E T59Q E61L [GP_Gen] = 0.46, 0.27, 0.18, 0.03, 0.13, 0.12 (mean 0.20)
* S25M Q27K S62V S103E [Ctrl] = 0.47, 0.54, 0.65, 0.42, 0.30, 0.79 (mean 0.53)
* S25L S26M V29E W56N T59K [GP_Gen] = 0.97, 0.67, 0.29, 0.92, 0.55, 1.19 (mean 0.76)
* S25L S26D S28G V29G W56G [GP_HC] = -0.21, -0.29, -0.15, -0.37, -0.14, -0.10 (mean -0.21)
* S25L S26Y V29F W56E [GP_Gen] = 0.85, 0.70, 0.64, 0.96, 1.17, 0.75 (mean 0.84)
* Q95V Q96E Y97E L100A [Ctrl] = nd, nd, nd, nd, nd, nd
* Y31M E32A K36N [Ctrl] = 1.74, 1.63, 1.75, 1.98, 2.68, 2.30 (mean 2.01)

Top 4 of the variants detected in all replicates, tightest first:

* S25L S26P W56D T59Q [GP_Gen] = -0.38, -0.56, -0.52, -0.59, -0.54, -0.50 (mean -0.52)
* S25L L30D N35Q W56N S58Q E61M [GP_Gibbs] = -0.15, -0.27, -0.34, -0.32, -0.38, -0.15 (mean -0.27)
* S25L S26D S28G V29G W56G [GP_HC] = -0.21, -0.29, -0.15, -0.37, -0.14, -0.10 (mean -0.21)
* S25L S26E V29E W56N T59Q E61L [GP_Gen] = 0.01, -0.27, -0.23, -0.33, -0.26, -0.05 (mean -0.19)

A sequence measured in both rounds can read differently, since the two assays cover different ranges.
The parent sequence was in this pool as ten entries: three were never detected, three once, and four in most replicates, with averages from 0.34 to 2.37.
Nonspecific signal, from three strains lacking the peptide, appeared in 4% of pairings of all light chain designs, centred on 2.64 (5% of these signals below 1.59); values are not corrected for it.
The authors averaged sequences with at least three values out of six and counted those with two or fewer as poor binders.